Bioassay records: PubChem BioAssay, National Center for Advancing Translational Sciences (NCATS)
TDP1 cell noCPT = qHTS for Inhibitors of human tyrosyl-DNA phosphodiesterase 1 (TDP1): qHTS in cells in absence of CPT. Potency, µM (titrated, usually from 46.2 µM), most hits filed as inhibitors. hit rate 15% among 420,000. DT40 Tdp1-/- hTDP1 cells, no CPT, ATP luminescence, 48 h. AID 686978, 2013; also: nearly all actives have a fitted effect of over 55% in size
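Cells were dispensed at 400 per well, compounds added by pin tool, plates incubated ≥48 hr at 37 °C, then CellTiter-Glo added for 30 min at room temperature before luminescence reading. Line: DT40 Tdp1-/- complemented with hTDP1; camptothecin omitted.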
miR-21 FLuc = raises the signal of a miR-21 reporter | HeLa miR-21 FLuc reporter, luciferase, 48 h | Potency, µM (highest dose often 38.3 µM) | 340,000 tested, under 10 active; active = well fitted rising curve with a large enough effect; inconclusive = small, poorly fitted or top-dose-only effect; inactive = no such curve, though single readings can be large or run the other way;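 note: miR-21 action dims this reporter so a rising signal means less miR-21 action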
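Compounds were titrated across several concentrations (up to approximately 40 uM) and incubated 48 hours with HeLa miR-21-FLuc reporter cells (miR-21 target sequence downstream of FLuc, endogenous miR-21). Readout was firefly luciferase luminescence after lytic detection reagent.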
uPA surface inh = cell surface uPA generation inhibition. hit rate 0.31% among 330,000. Potency, µM (titrated, usually from 38.3 µM), actives largely listed as inhibitors. AID 540303. cell surface uPA generation assay, qHTS; active = well fitted inhibition curve with a large enough effect; inconclusive = small, poorly fitted or top-dose-only effect; inactive = no such curve, though single readings can be large or run the other way; tested in mouse RAW 264.7 cells; also: nearly all actives have a fitted effect of over 55% in size
TDP1 inh = TDP1 (human) enzyme inhibition | recombinant TDP1, AlphaScreen DNA substrate cleavage | hit rate 0.28% among 350,000 | Q9NUW8 | Potency, µM (top dose mostly 130 µM), actives largely listed as inhibitors; also: nearly all actives have a fitted effect of over 40% in size
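Enzyme-compound mixtures sat 15 min at room temperature, followed by a 5 min reaction with 15 nM final substrate and 10 min with AlphaScreen beads. Recombinant human Tdp1 was used at 1 nM final.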
DT40 TDP1 CPT = growth inhibition of DT40 Tdp1-/-;hTDP1 cells with camptothecin (screen for TDP1 inhibitors); AID 686979; Potency, µM (titrated, usually from 46.2 µM), actives largely listed as inhibitors; chicken DT40 Tdp1-/-;hTDP1 cells + 20 nM CPT, ATP luminescence, 48 h; hit rate 12% among 420,000; also: nearly all actives have a fitted effect of over 55% in size
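Cell growth measured by CellTiter-Glo luminescence after a minimum 48 h, 37 C compound exposure with 20 nM CPT in Tdp1-knockout DT40 cells stably expressing hTDP1, seeded 400/well; qHTS titration format.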
Numbers stand for hits; – = inactive; ? = inconclusive; · = not tested or not shown; [ ] = another dose, or the depositor's remark. Shown are actives, neighbours in structure and some others; about 16% of the full set was active somewhere. Unless noted, calls follow the shape of the dose curve; as a rule, active = well fitted curve in the direction sought with a large enough effect; inconclusive = small, poorly fitted or top-dose-only effect, or another doubt; inactive = no such curve, though single readings can be large; an effect the other way counts as inactive or inconclusive.

SMILES | TDP1 cell noCPT | miR-21 FLuc | uPA surface inh | TDP1 inh | DT40 TDP1 CPT
Cc1cc(C)c2c(=O)n3c(nc2c1)C(Cc1ccc(O)cc1)NC(=O)c1cc2ccccc2cc1-3 (configuration not stated) | 18.4µM | · | · | · | 16.4µM
O=C1NC(Cc2ccccc2)c2nc3ccc(Br)cc3c(=O)n2-c2cc(Cl)ccc21 (configuration not stated) | · | · | · | – | ·
O=c1oc2ccccc2c(NC2CCCCC2)c1NS(=O)(=O)c1ccc(Br)cc1 | ? | – | – | – | ?
COc1ccc2nc3n(c(=O)c2c1)-c1cc2ccccc2cc1C(=O)NC3Cc1ccc(O)cc1 (configuration not stated) | 18.4µM | · | · | · | ?
CC(C)(C)N1CCC1CN (configuration not stated) | – | – | – | – | –
C[C@H](NC(=O)c1nc[nH]c1C(=O)N1CCNCC1)C(=O)OCc1ccccc1 | – | · | – | – | –
C[C@H](NC(=O)c1nc[nH]c1C(=O)NC(c1ccccc1)c1ccccc1)C(=O)OCc1ccccc1 | 23.1µM | – | – | – | 23.1µM
CCN(CC)C(=O)c1[nH]cnc1C(=O)N[C@@H](C)C(=O)OCc1ccccc1 | 10.3µM | – | – | – | ?
C[C@H](NC(=O)c1nc[nH]c1C(=O)N[C@@H](C)C(=O)OCc1ccccc1)C(=O)OCc1ccccc1 | – | – | – | · | –
Cc1ccsc1/C=C/c1n[nH]c(=O)c(C#N)c1C | – | – | – | – | –
COc1ccc(S(=O)(=O)N2CCN(C(=O)c3cc(-c4ccc(C)cc4)n[nH]3)CC2)cc1 | ? | – | – | · | 25.9µM
O=C(c1cc(-c2ccc(Br)cc2)n[nH]1)N1CCN(S(=O)(=O)c2ccc(Br)s2)CC1 | 23.1µM | – | · | – | 20.6µM
Cc1ccc(-c2cc(C(=O)N3CCN(S(=O)(=O)c4ccc(Br)s4)CC3)[nH]n2)c(C)c1 | 18.4µM | – | · | – | 11.6µM
O=C(c1cc(-c2ccc(Br)cc2)n[nH]1)N1CCN(S(=O)(=O)c2ccc(Cl)s2)CC1 | ? | – | · | – | ?
Cc1ccc(-c2cc(C(=O)N3CCN(S(=O)(=O)c4ccc(Br)cc4)CC3)[nH]n2)c(C)c1 | ? | – | · | – | ?
Cc1ccc(-c2cc(C(=O)N3CCN(S(=O)(=O)c4ccc(Br)s4)CC3)[nH]n2)cc1C | 13µM | – | · | – | 14.6µM
COc1ccc(OCCCC(=O)Nc2nc(C)c(C(C)=O)s2)cc1 | – | – | – | – | –
CC(=O)c1sc(NC(=O)CCS(=O)(=O)c2ccccc2)nc1C | 5.8µM | – | – | – | 5.17µM
CC(=O)c1sc(NCCOc2ccc(C)cc2)nc1C | 14.6µM | – | – | – | ?
CC(=O)c1sc(NC(=O)CCS(=O)(=O)c2ccc(F)cc2)nc1C | 2.91µM | · | · | · | 2.59µM
CC(=O)Nc1nc(C)c(C(C)=O)s1 | ? | – | – | – | 14.6µM
CC(=O)c1sc(NCc2ccc(C)cc2)nc1C | – | – | – | –[0.0935 µM] | –
O=[N+]([O-])c1ccc(OCCCn2cncn2)cc1 | – | – | – | · | –
CC(C)NC(=S)Nc1ccc2nc3n(c(=O)c2c1)CCCCC3 | – | – | – | – | –
CCCC1(c2ccccc2)NC(=O)N(CC(=O)NCC2COc3ccccc3O2)C1=O (configuration not stated) | ? | · | – | – | ?
SMILES | TDP1 cell noCPT | miR-21 FLuc | uPA surface inh | TDP1 inh | DT40 TDP1 CPT
CCOC(=O)C1CCCN(C(=O)Cn2ncc3c(C)n(Cc4ccc(Cl)cc4)c(C)c3c2=O)C1 (configuration not stated) | 8.2µM | – | · | – | 8.2µM
CCOC(=O)C1CCCN(C(=O)Cn2ncc3c(C)n(Cc4ccccc4F)c(C)c3c2=O)C1 (configuration not stated) | 18.4µM | – | · | – | 25.9µM
CCOC(=O)C1CCCN(C(=O)Cn2ncn3c(cc4sc(CC)cc43)c2=O)C1 (configuration not stated) | ? | – | · | – | 20.6µM
CCN1CCCC1CNC(=O)c1cnn(-c2nccc(-c3ccccc3OC)n2)c1-c1ccco1 (configuration not stated) | 7.31µM | · | · | · | ?
COC(=O)c1cc(-c2ccccc2)n(CCN)c1C | – | · | – | · | –
COc1cccc(N2CCN(c3ncnc4onc(-c5ccc(F)cc5)c34)CC2)c1 | – | – | · | – | –
COC(=O)c1c(-c2ccc(Cl)cc2)noc1N1CCN(c2cccc(C)c2C)CC1 | ? | – | · | – | 16.4µM
COC(=O)c1c(-c2ccc(Cl)cc2)noc1N1CCN(c2cccc(OC)c2)CC1 | 5.8µM | – | · | – | 16.4µM
Cc1ccc(NC(=O)CN2C(=O)NC3(CCCc4ccccc43)C2=O)cc1S(=O)(=O)N1CCOCC1 (configuration not stated) | ? | – | – | – | –
CCN(CC)S(=O)(=O)c1cc(NC(=O)CN2C(=O)NC3(CCCc4ccccc43)C2=O)ccc1C (configuration not stated) | ? | – | – | – | 23.1µM
Cc1ccc(C)c(NC(=O)CN(C)C(=O)CN2C(=O)NC3(CCc4ccccc43)C2=O)c1 (configuration not stated) | 8.2µM | · | – | – | 9.2µM
O=C(Oc1c(CN2CCOCC2)cc(Cl)c2cccnc12)c1cccs1 | 4.61µM | ? | – | – | 4.11µM
O=C(Oc1c(Cl)cc(Cl)c2cccnc12)c1cccs1 | ? | – | – | – | 16.4µM
O=C(Oc1c(CN2CCOCC2)cc(Cl)c2cccnc12)c1ccccc1Cl | 2.91µM | ? | – | – | 2.31µM
O=C(Oc1ccc(Cl)c2cccnc12)N1CCOCC1 | – | – | – | – | –
Cc1ccc2cc(C#N)c(SCC(=O)Nc3ccc4sc(C)nc4c3)nc2c1 | · | – | · | – | ·
NC(=O)c1cc(S(=O)(=O)N2CCc3ccccc3C2)cs1 | ? | – | – | · | ?
Cc1ccc(-n2c(SCC(N)=O)nc3c(oc4ccccc43)c2=O)cc1 | 18.4µM | – | – | – | ?
Cc1cc(C)cc(-n2c(SCC(N)=O)nc3c(oc4ccccc43)c2=O)c1 | 14.6µM | – | · | – | ?
CC(=O)OCC1OC(Sc2cccc3cccnc23)C(OC(C)=O)C(OC(C)=O)C1OC(C)=O (configuration not stated) | ? | – | – | – | ?
COc1ccc(OC)c(NC(=O)c2nc(S(=O)(=O)Cc3ccccc3)ncc2Cl)c1 | 0.581µM | – | – | – | 0.581µM
COc1ccc(OC)c(NC(=O)c2nc(S(=O)(=O)Cc3ccccc3F)ncc2Cl)c1 | 0.631µM | · | · | · | 1µM
COc1ccc(/C=C2\N=C(C)N(c3ccc4ccccc4c3)C2=O)cc1OC | 5.8µM | – | – | – | ?
COc1ccc(/C=C2\N=C3CCCCCN3C2=O)cc1OC | – | – | – | – | –
CCNC(=O)C1(C)CCCN(Cc2ccc(-c3ccccn3)cc2)C1 (configuration not stated) | – | · | · | · | –
